Source: US20090149436A1, “CASPASE INHIBITOR” (Astellas Pharma Inc., priority 2004, published 2009)
Where two headings read alike, the source gives them in different places.

Target: T1, human recombinant caspase 3 (Homo sapiens, UniProt P42574)
T1 construct: purchased CALBIOCHEM 235417
T1 sequence (P42574 29-175 limits assumed): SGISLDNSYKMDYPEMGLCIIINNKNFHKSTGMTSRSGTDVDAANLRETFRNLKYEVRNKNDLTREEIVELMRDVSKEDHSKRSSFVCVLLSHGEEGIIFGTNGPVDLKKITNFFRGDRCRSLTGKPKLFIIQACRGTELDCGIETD
T1 sequence (P42574 176-277 limits assumed): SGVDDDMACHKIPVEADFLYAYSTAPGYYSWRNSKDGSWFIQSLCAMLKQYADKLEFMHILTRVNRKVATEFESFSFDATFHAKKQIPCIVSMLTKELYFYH
Test: Assay of inhibitory activity against human recombinant caspase 3 (fluorogenic substrate Ac-DEVD-MCA)
Assay type: biochemical
Protocol: A reaction buffer containing 10% sucrose, 0.1% CHAPS, 2 mM dithiothreitol in 25 mM HEPES (pH 7.5) is prepared. A pharmaceutical agent-diluted solution (50 μl) containing the above-mentioned test compound diluted in the buffers and 4 μM buffer solution (25 μl) of a substrate Ac-Asp-Glu-Val-Asp-4-methyl-coumaryl-7-amide (PEPTIDE INSTITUTE, INC.) are dispensed to a light shading type 96 well microplate per well. Thereto is added 25 μl of human recombinant caspase 3 (CALBIOCHEM catalog No. 235417), 500 U/ml, to start the reaction. After incubation at room temperature for 2 hr. the reaction quench buffer (0.1 M monochloroacetic acids 0.03 M sodium acetate, 0.15 M acetic acid (pH 4.3)) is added by 100 μl per well. The fluorescence of 7-amino-4-methylcoumarin ([…]) released by the enzyme reaction is measured using a fluorophotometer (Ex. 355 nm, Em. 460 nm). The enzyme activity is calculated from the analytical curve based on the fluorescence strength of AMC (PEPTIDE INSTITUTE, INC.).
The compounds of the above-mentioned 1. were examined for the activity inhibitory action on human recombinant caspase 3. In this experiment, acetyl-L-aspartyl-L-glutamyl-L-valyl-L-aspart-1-al (DEVD) (PEPTIDE INSTITUTE, INC.) was used as the standard product of caspase 3 inhibitor.
Using dicyanocobinamide as a caspase 3 inhibitor, experiments similar to the above-mentioned Example 1 were performed with different substrate concentrations (2, 4, 6 and 8 nM). The experiment results are shown in FIG. 3 as Lineweaver-Burk plot.

`CC(=O)N[C@@H](CC(=O)O)C(=O)N[C@@H](CCC(=O)O)C(=O)N[C@H](C(=O)N[C@H](C=O)CC(=O)O)C(C)C` [DEVD, acetyl-L-aspartyl-L-glutamyl-L-valyl-L-aspart-1-al, reference compound] gave an IC50 (FIG. 1 lower panel, read-out: IC50, inhibitory activity against human recombinant caspase 3) of 3.54 nM, an IC50 (FIG. 1 upper panel, read-out: IC50, inhibitory activity against human recombinant caspase 3) of 5.19 nM and an IC50 (FIG. 2, read-out: IC50, caspase (Enzyme Specificity)) of 5.19 nM.
